The target in this experiment is T1, ULK1 (Homo sapiens, UniProt O75385).
T1 sequence (O75385 1-1050): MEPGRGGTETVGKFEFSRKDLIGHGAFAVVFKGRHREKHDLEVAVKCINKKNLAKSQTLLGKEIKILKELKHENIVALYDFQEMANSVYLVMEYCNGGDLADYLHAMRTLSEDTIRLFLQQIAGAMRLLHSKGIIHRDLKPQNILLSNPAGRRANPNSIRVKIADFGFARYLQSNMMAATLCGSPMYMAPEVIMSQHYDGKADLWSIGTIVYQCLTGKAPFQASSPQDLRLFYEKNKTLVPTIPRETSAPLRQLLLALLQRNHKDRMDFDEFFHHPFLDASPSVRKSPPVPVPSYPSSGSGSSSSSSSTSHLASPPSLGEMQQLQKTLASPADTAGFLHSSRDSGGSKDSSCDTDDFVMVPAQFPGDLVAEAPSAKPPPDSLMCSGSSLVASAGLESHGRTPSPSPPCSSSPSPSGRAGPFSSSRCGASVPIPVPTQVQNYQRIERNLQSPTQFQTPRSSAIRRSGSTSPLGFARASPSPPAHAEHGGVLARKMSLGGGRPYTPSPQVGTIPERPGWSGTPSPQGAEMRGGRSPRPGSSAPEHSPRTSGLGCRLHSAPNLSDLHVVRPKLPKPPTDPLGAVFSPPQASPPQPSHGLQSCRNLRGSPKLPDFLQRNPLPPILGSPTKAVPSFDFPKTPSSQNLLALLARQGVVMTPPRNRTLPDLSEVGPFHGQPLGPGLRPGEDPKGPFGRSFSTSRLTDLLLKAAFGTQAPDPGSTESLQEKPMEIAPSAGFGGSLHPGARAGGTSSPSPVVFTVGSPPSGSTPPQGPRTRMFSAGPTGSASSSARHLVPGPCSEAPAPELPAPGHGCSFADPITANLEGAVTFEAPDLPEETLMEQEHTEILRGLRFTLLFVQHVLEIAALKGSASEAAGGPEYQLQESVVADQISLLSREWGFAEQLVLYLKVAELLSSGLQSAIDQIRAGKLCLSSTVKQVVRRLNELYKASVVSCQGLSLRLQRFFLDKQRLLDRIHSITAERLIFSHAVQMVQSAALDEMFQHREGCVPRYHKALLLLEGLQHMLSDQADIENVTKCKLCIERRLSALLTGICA
In words: Western blot of ULK1 signaling (p-ATG14, p-Beclin1, p-ULK1) in MT330 cells. Type of experiment: cell-based. The conditions noted are these: MRT68921 20 μM, 5 h. On the technique in general: In western blotting, separated proteins are transferred to a membrane and probed.

The mark [1] stands for this setting: STAT3-KO and STAT3-mutant MT330 lines.

Molecules are shown by their SMILES.

Turning to `CN1CCc2cc(Nc3ncc(C4CC4)c(NCCCNC(=O)C4CCC4)n3)ccc2C1` [MRT68921], under setting [1], the “ATG14 S29 phosphorylation” value is listed as “completely blocked” and the Beclin1 phosphorylation entry is “reduced”. Also, the ULK1 phosphorylation entry (STAT3-KO cells and cells expressing STAT3 mutants) is listed as “significantly inhibited”.

(Values after patent US20250011790A1, “COMBINED TARGETING OF STAT3 AND ULKI TO TREAT GLIOBLASTOMA” (Vanderbilt University, priority 2021, published 2025).)
